Data on eight molecules can be found in publication PMC8605023 (Nature Communications, 2021).

A word on the Ki: it is the equilibrium dissociation constant of an inhibitor or competing ligand from its target. Lower therefore signals higher affinity. As usually defined, the Kd is the constant that tells how readily two partners part at equilibrium. By IC50 is commonly meant the concentration that gives 50% inhibition. Low values mean greater potency in that assay, high ones weaker potency in that assay.

The target of one assay is G3BP1 NTF2 domain (human, UniProt Q13283 11-133). As to conditions: both partners purified.
The target of assay [1] is T1, G3BP2 NTF2 domain, His-GST-tagged (human, UniProt Q9UN86 11-133).
T1 sequence (looked up): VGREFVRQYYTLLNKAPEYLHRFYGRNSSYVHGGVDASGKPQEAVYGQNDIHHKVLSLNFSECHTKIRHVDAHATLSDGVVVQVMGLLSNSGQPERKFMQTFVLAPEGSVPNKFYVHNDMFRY
As to conditions: both partners purified.

B1: UBAP2L peptide 515-528 (peptide)
peptide: NLQFGALQFGSEPVY
modifications: N-terminal acetylation
Take B1: the affinity in the assay with G3BP1 NTF2 domain corresponds to a Ki of 34 µM. In other words, the double-digit micromolar range.

B2: PRRC2B 1780-1794 peptide (peptide, UniProt Q5JSZ5 1780-1794, looked up)
peptide: PVPPIEFGVSPKDSD
In assay [1], B2 showed a Kd of 10 µM.

B3: DDIT3 4-19 peptide (peptide, UniProt P35638 4-19, looked up)
peptide: ESLPFSFGTLSSWELE
Molecule B3 yielded a Kd in assay [1] of 14 µM.

B4: TRIM25 400-414 peptide (peptide, UniProt Q14258 400-414, looked up)
peptide: PSKLPTFGAPEQLVD
Molecule B4 came in with a Kd in assay [1] of 46 µM.

B5: UBAP2L 515-528 peptide (peptide, UniProt Q14157 515-528, looked up)
peptide: NLQFGALQFGSEPV
In assay [1], B5 returned a Kd of 34 µM.

B6: CAPRIN1 peptide 364-379 (peptide)
peptide: AQMQGPYNFIQDSMLD
modifications: N-terminal acetylation; C-terminal amidation
In turn, B6 yielded an IC50 with G3BP1 NTF2 domain of 46 µM.

B7: PRRC2B peptide 1780-1794 (peptide)
peptide: PVPPIEFGVSPKDSDY
modifications: N-terminal acetylation; C-terminal amidation
As for B7, in the assay with G3BP1 NTF2 domain, the IC50 amounted to 33 µM and the Ki was 10 µM.

B8: DDIT3 peptide 4-19 (peptide)
peptide: ESLPFSFGTLSSWELE
modifications: N-terminal acetylation
For B8, in the assay with G3BP1 NTF2 domain, half-maximal inhibition (IC50) was put at 44 µM and the Ki came out at 14 µM.
